Results on 1 compound are retold here after patent publication US20240166664A1, “TRIHETEROCYCLIC COMPOUND, PREPARATION METHOD THEREFOR, AND APPLICATION THEREOF” (SHANGHAI APEIRON THERAPEUTICS COMPANY LIMITED, priority 2021, published 2024).

The chains behind the UniProt entries cited, without tags or fusion partners.
UniProt Q7Z3E1, whole entry: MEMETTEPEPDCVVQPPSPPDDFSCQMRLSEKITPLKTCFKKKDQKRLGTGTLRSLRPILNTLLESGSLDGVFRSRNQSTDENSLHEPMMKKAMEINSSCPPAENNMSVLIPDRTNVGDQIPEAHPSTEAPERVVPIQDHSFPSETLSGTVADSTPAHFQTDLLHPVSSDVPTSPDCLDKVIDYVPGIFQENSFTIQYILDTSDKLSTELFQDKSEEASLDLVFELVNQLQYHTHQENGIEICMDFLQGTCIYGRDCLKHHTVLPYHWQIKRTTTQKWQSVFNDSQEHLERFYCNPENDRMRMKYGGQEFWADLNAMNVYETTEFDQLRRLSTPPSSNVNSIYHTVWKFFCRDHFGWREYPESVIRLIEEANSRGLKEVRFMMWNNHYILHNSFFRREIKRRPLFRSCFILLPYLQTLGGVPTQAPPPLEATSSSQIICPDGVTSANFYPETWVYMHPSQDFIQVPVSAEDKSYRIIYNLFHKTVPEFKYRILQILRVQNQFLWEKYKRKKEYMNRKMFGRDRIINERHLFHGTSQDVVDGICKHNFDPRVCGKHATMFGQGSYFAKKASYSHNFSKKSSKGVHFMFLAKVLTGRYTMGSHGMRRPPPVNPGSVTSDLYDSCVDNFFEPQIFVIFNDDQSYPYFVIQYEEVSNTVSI

The structures appear in SMILES notation. A value given as a limit tells only on which side of the number the result lay.

For one assay, the target named is PARP7 (Homo sapiens, UniProt Q7Z3E1). Nature of the assay: Test of inhibitory activity against PARP7 enzyme (PARP7 FLAG-tag, Probe A, time-resolved fluorescence). The following applies: read-out: Inhibitory activity against PARP7 enzyme IC50; PARP7 12 nM, Probe A 2 nM, 1 hr room temperature. It is filed as biochemical.
The next assay deals with NCI-H1373 cells. Nature of the assay: Cell proliferation inhibition assay (CTG method). The following applies: read-out: IC50 (nM) for NCI-H1373 cell viability, 6 days incubation. The format is cell-based, human.

On to `C[C@@H](COCCC(=O)N1CCN2c3ncc(C(F)(F)F)cc3C=C[C@@H]2C1)Nc1cn[nH]c(=O)c1C(F)(F)F`, for which the values for the half-maximal inhibitory concentration (IC50) on PARP7 and in the assay with NCI-H1373 cells were under 10 nM and under 100 nM, respectively.
